Patent US20240217936A1, “5-BENZY[…] AND PREPARATION METHOD THEREFOR AND USE THEREOF” (WEST CHINA HOSPITAL, SICHUAN UNIVERSITY, priority 2021, published 2024)

Tests used:
Male SD rats = assay: Blood pressure change after tail vein injection (mean arterial pressure); details: 60 min recording
Description: Male SD rats weighing 250-300 g were randomly divided into groups, with 10 rats in each group. General anesthesia was maintained by inhaling isoflurane. By intubating via femoral artery, blood pressure was monitored using the BL-420N biological signal collection and analysis system. minutes after blood pressure stabilization, the baseline mean arterial pressure (MAP0) was measured. Subsequently, the physiological saline solution of each test drug was injected via the tail vein (the dosage of each drug was the same as that in Experiment example 2, with a unified injection […] volume of 1 mL). […] All prodrug molecules were injected within 15 seconds. After injection of each drug, the change in blood pressure was continuously recorded for 60 min. […] The difference MAPΔ+ between the baseline mean arterial pressure (MAP0) and the highest mean arterial pressure (MAPmax) during the 60 min measurement time was calculated; the difference MAPΔ− between the baseline mean arterial pressure (MAP0) and the lowest mean arterial pressure (MAPmin) during the 60 min measurement time was also obtained; both of the difference values were used to calculate the maximum increase rate of mean arterial pressure +Δ%=MAPΔ+/MAP0*100% and the maximum decrease rate of mean arterial pressure −Δ%=MAPΔ−/MAP0*100%, respectively. The maximum increase rate of mean arterial pressure +Δ% and the maximum decrease rate −Δ% reflect the degree of blood pressure change that the body experienced after administration. The larger the value, the greater the blood pressure change that the body experienced.

[1] = reported (Anttila M, et al. 2003); cited from earlier work
[2] = dosage 2× ED50, injection within 15 seconds, rats under isoflurane
[3] = dosage 2× ED50, injection within 10 minutes (0.1 mL per minute), rats

With Cc1cccc([C@H](C)c2c[nH]cn2)c1C.Cl [Dexmedetomidine hydrochloride, reference compound] the “+Δ % (The maximum increase rate of blood pressure)” value (Male SD rats; [2]) was 43 ± 11%, the “−Δ % (The maximum decrease rate of blood pressure)” value (Male SD rats; [2]) was 38 ± 7% and the “+Δ % (The maximum increase rate of blood pressure)” value (Male SD rats; [3]) was “*15 ± 5%”. The “−Δ % (The maximum decrease rate of blood pressure)” value (Male SD rats; [3]) was 37 ± 8% and the oral bioavailability [1] was 16%.
